This data set concerns CCn1c(=NN=c2sc3cc(S(=O)(=O)O)ccc3n2CC)sc2cc(S(=O)(=O)O)ccc21. Briefly: purified protein. To be noted: no added Fe2+, optimum pH 1.5, 50 °C, glycine-HCl.

As usually defined, the Km is the substrate concentration at which the rate is half of its maximum. The term kcat denotes the number of substrate molecules converted per active site and unit of time at saturation. In general, kcat/Km refers to the second-order rate constant that governs catalysis at low substrate concentration.

With Melac13220 (Methylorubrum extorquens), the Km turned out to be 76.5 µM, the kcat stood at 14.6 s⁻¹ and the kcat/Km worked out at 191000 M⁻¹ s⁻¹.

Values taken from paper PMC9456135.
